Assays:
Type in all cases: cell-based
CPS1 = assay: RNA-seq, CPS1 expression in compound-treated primary human hepatocytes
ARG1 = assay: RNA-seq, ARG1 expression in compound-treated primary human hepatocytes; settings: compounds that significantly increase ARG1 expression
SLC25A15 = assay: RNA-seq, SLC25A15 expression in compound-treated primary human hepatocytes; settings: compounds that significantly increase SLC25A15 expression

GZD824 Dimesylate
Fold change (Log 2) vs untreated (CPS1): 3.39 Log 2 | ARG1 expression, Fold change (Log 2) vs untreated (ARG1): 1.06 Log 2 | SLC25A15 expression, Fold change (Log 2) vs untreated (SLC25A15): 0.73 Log 2
